# Laboratory results taken from paper PMC6269162.
# Target: Rabbit actin (rabbit) (UniProt P68135)
# Assay: co-sedimentation; 10 μM actin mixed with increasing concentrations of Tpm; pellet and supernatant on SDS-PAGE, densitometry, Hill equation; K50% = free Tpm for half saturation of actin, 'not a true affinity measurement'; 25 °C (methods) or 20 °C (results); average of 3 independent experiments
row,K50% [µM],Substance
1,1.65,"Tpm^Cdc8.E129K, Nt-acetylated (from UniProt Q02088 1-161) (natural protein)"
2,4.69,"Tpm^Cdc8.E129K, non-acetylated (from UniProt Q02088 1-161) (natural protein)"
3,0.62,"Tpm^Cdc8, wild type, Nt-acetylated (from UniProt Q02088 1-161) (natural protein)"
4,2.54,"Tpm^Cdc8, wild type, non-acetylated (from UniProt Q02088 1-161) (natural protein)"
